The results in this text go back to paper PMC5915599.

The assay has as its target actin from rabbit skeletal muscle (rabbit) (UniProt P68135).

In the case of “heterodimeric capping protein (mouse α1- and β2-subunits) (from UniProt P47753 1-286; P47757-2 1-272) (complex)”, the lag phase of pyrene-actin polymerization of the full system (3 µM actin, 0.3 µM VCA, 0.3 µM Arp2/3 complex, 13.5 µM profilin) in the presence of 20 nM CP stood at 1.5 min.
